# AlphaSeq binding of Ab-14 heavy chain variants to a spike HR2 peptide

Reference: Li et al. 2023, doi:10.1038/s41467-023-39022-2. File: FLAb, binding data.

Antigen: PDVDLGDISGINAS, a 14-residue peptide of the SARS-CoV-2 spike HR2 region.

Parent: Ab-14, a human scFv built as VH, three GGGGS repeats, VL. Only the CDRs of the heavy chain vary.
VH: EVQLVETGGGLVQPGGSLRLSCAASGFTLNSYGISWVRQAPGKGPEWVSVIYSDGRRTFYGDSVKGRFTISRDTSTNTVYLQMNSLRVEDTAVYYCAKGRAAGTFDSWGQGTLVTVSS
VL: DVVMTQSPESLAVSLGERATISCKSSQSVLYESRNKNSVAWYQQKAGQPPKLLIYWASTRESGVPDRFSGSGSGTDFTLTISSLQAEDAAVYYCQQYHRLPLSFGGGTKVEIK

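The parent was found by panning a naive human phage display library on the peptide. Designed CDR sequences, proposed from the first random library and measured here. Their group label is 14H_GP_HC (GP: Gaussian process model; HC: hill climbing; a sequence that several methods proposed may carry one label only). In AlphaSeq, yeast of one mating type display the scFv and yeast of the other type display the target. Pairs that bind mate more often; barcode pairs of the diploids are counted by sequencing. The ratio of observed to expected reads was calibrated, replicate by replicate, on BCL2-family standards whose Kd was known from biolayer interferometry. The assay was run in six technical replicates.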

Variants are written as CDR1, CDR2 and CDR3 of the heavy chain (limits as in the source). Parent: GFTLNSYGIS, VIYSDGRRTFYGDSVK, GRAAGTFDS. Affinities are written as log10 Kd with Kd in nM; a lower number is a better binder. "nd" means that the variant was in the library but no mating with the target was seen in that replicate; the authors take this as a sign of poor binding, and no number exists.

{"CDR-H1": "GFTLNDYGIS", "CDR-H2": "VIYSDGRRTFYTDSVK", "CDR-H3": "GREAGTFDV", "log10 Kd (nM) by replicate": "0.32 0.42 0.24 -0.25 0.14 0.61", "signal with controls": "0 of 18"}
{"CDR-H1": "GFTLDSYGIS", "CDR-H2": "VIYADGRRTFYGDSVK", "CDR-H3": "GREAGTFDS", "log10 Kd (nM) by replicate": "0.34 1.27 1.45 0.42 1.22 0.61", "signal with controls": "0 of 18"}
{"CDR-H1": "GFSLNEYGIS", "CDR-H2": "VIYSDGRRTFYCDSVK", "CDR-H3": "GRAAGTFDR", "log10 Kd (nM) by replicate": "nd nd 0.50 nd nd nd", "signal with controls": "0 of 18"}
{"CDR-H1": "GYTLNEYGIS", "CDR-H2": "VIYSDGRRTAYSDSVK", "CDR-H3": "GRAAGTFDS", "log10 Kd (nM) by replicate": "0.19 0.63 0.42 0.70 0.56 0.67", "signal with controls": "0 of 18"}
{"CDR-H1": "GFNLNSYGIS", "CDR-H2": "VIYSDGRRTFYVDSVK", "CDR-H3": "GQLAGTFDS", "log10 Kd (nM) by replicate": "2.32 0.51 1.57 1.62 0.99 0.18", "signal with controls": "0 of 18"}
{"CDR-H1": "GFTLNSYGIS", "CDR-H2": "VIYSDGRRTFYHDSVK", "CDR-H3": "GQLAGTFDD", "log10 Kd (nM) by replicate": "1.15 1.24 1.46 1.51 1.84 0.88", "signal with controls": "0 of 18"}
{"CDR-H1": "GFTLNSYGIS", "CDR-H2": "VIYSDGRRTFYCDSVK", "CDR-H3": "GKLAGTFDS", "log10 Kd (nM) by replicate": "1.19 nd -0.05 0.29 1.17 1.70", "signal with controls": "2 of 18 (1.01)"}
{"CDR-H1": "GFNLNSYGIS", "CDR-H2": "VIYSDGRRTAYQDSVK", "CDR-H3": "GRAAGTFDS", "log10 Kd (nM) by replicate": "0.66 0.25 0.46 0.48 0.71 0.49", "signal with controls": "0 of 18"}
{"CDR-H1": "GFDLNSYGIS", "CDR-H2": "VIYSDGRRTFYGDDVK", "CDR-H3": "GRAAGHFWS", "log10 Kd (nM) by replicate": "nd 0.70 nd 0.39 0.71 0.70", "signal with controls": "0 of 18"}
{"CDR-H1": "GFTLDSYGIS", "CDR-H2": "VIYSDGMRTFYGDSVK", "CDR-H3": "GRAAGTFDQ", "log10 Kd (nM) by replicate": "1.52 0.85 1.63 1.65 1.49 1.58", "signal with controls": "0 of 18"}
{"CDR-H1": "GFTLDSYGIS", "CDR-H2": "VIYSDGRRTFYIDSVK", "CDR-H3": "GRAAGTFWS", "log10 Kd (nM) by replicate": "1.47 1.89 nd nd 2.57 2.36", "signal with controls": "0 of 18"}
{"CDR-H1": "GFPLNEYGIS", "CDR-H2": "VIYADGRRTFYGDSVK", "CDR-H3": "GSAAGTFDS", "log10 Kd (nM) by replicate": "-0.21 -0.25 -0.42 -0.57 -0.62 -0.34", "signal with controls": "0 of 18"}
{"CDR-H1": "GFLLNDYGIS", "CDR-H2": "VIYSDGRRTFYGDSVK", "CDR-H3": "GKAAGTFDS", "log10 Kd (nM) by replicate": "2.54 2.15 1.23 1.95 1.67 1.04", "signal with controls": "1 of 18 (1.26)"}
{"CDR-H1": "GFTLNSYGIS", "CDR-H2": "VIYSDGRRTFYSDSVK", "CDR-H3": "GHAAGTFDN", "log10 Kd (nM) by replicate": "nd nd nd nd 1.40 nd", "signal with controls": "0 of 18"}
{"CDR-H1": "GFDLNSYGIS", "CDR-H2": "VIYSDGRRTFYSDSVK", "CDR-H3": "GQLAGTFDS", "log10 Kd (nM) by replicate": "0.31 -0.10 -0.32 -0.56 -0.13 0.09", "signal with controls": "0 of 18"}
{"CDR-H1": "GFDLNSYGIS", "CDR-H2": "VIYSDGRRTFYGDSVK", "CDR-H3": "GRWAGTFES", "log10 Kd (nM) by replicate": "nd nd nd nd 1.92 nd", "signal with controls": "0 of 18"}
{"CDR-H1": "GFTLNDYGIS", "CDR-H2": "VIYSDGRRTMYIDSVK", "CDR-H3": "GRAAGTFDA", "log10 Kd (nM) by replicate": "nd nd nd nd nd nd", "signal with controls": "0 of 18"}
{"CDR-H1": "GFSLNMYGIS", "CDR-H2": "VIYSDGRRTFYIDSVK", "CDR-H3": "GRQAGTFDS", "log10 Kd (nM) by replicate": "0.85 nd nd 1.43 nd 1.55", "signal with controls": "0 of 18"}
{"CDR-H1": "GFTLNEYGIS", "CDR-H2": "VIYSDGRRTFYEDSVK", "CDR-H3": "GRTAGTFDS", "log10 Kd (nM) by replicate": "0.71 -0.51 -0.46 0.92 -0.21 0.02", "signal with controls": "0 of 18"}
{"CDR-H1": "GFTLNSYGIS", "CDR-H2": "VIYSDGRRTFYSDSVK", "CDR-H3": "GREAGTFKS", "log10 Kd (nM) by replicate": "nd nd nd 1.51 1.32 2.46", "signal with controls": "1 of 18 (2.18)"}
{"CDR-H1": "GFELNEYGIS", "CDR-H2": "VIYSDGRRTMYTDSVK", "CDR-H3": "GRCAGTFDS", "log10 Kd (nM) by replicate": "nd nd nd nd nd nd", "signal with controls": "0 of 18"}
{"CDR-H1": "DFTLNSYGIS", "CDR-H2": "VIYSDGRRTAYSDSVK", "CDR-H3": "GRAAGTFDS", "log10 Kd (nM) by replicate": "0.86 1.30 1.20 0.99 0.61 1.24", "signal with controls": "2 of 18 (2.46)"}
{"CDR-H1": "GFELNDYGIS", "CDR-H2": "VIYSDGRRTEYQDSVK", "CDR-H3": "GRAAGTFDS", "log10 Kd (nM) by replicate": "nd 1.23 0.61 2.49 nd nd", "signal with controls": "0 of 18"}
{"CDR-H1": "GFTLDSYGIS", "CDR-H2": "VIYSDGRRTFYGDSVK", "CDR-H3": "GQAAGTFDR", "log10 Kd (nM) by replicate": "nd 0.68 0.87 0.43 1.74 1.34", "signal with controls": "1 of 18 (1.50)"}
{"CDR-H1": "GFTLNNYGIS", "CDR-H2": "VIYSDGRRTFYSDSVK", "CDR-H3": "GQDAGTFDS", "log10 Kd (nM) by replicate": "nd nd nd nd nd nd", "signal with controls": "0 of 18"}
{"CDR-H1": "GFWLNSYGIS", "CDR-H2": "VIYADGRRTFYGDSVK", "CDR-H3": "GTAAGTFDS", "log10 Kd (nM) by replicate": "1.07 2.02 2.14 -0.28 0.56 1.57", "signal with controls": "0 of 18"}
{"CDR-H1": "GFWLNDYGIS", "CDR-H2": "VIYSDGRRTFYADSVK", "CDR-H3": "GRAAGTFDT", "log10 Kd (nM) by replicate": "1.34 0.98 1.70 1.45 1.55 1.78", "signal with controls": "1 of 18 (2.76)"}
{"CDR-H1": "GFTLYEYGIS", "CDR-H2": "VIYSDGRRTFYGDSVK", "CDR-H3": "GRAAGTFDL", "log10 Kd (nM) by replicate": "nd nd nd nd 0.95 nd", "signal with controls": "0 of 18"}

The 2 strongest on average among those seen in every replicate, once more:

CDR-H1,CDR-H2,CDR-H3,log10 Kd (nM) by replicate,signal with controls
GFPLNEYGIS,VIYADGRRTFYGDSVK,GSAAGTFDS,-0.21 -0.25 -0.42 -0.57 -0.62 -0.34,0 of 18
GFDLNSYGIS,VIYSDGRRTFYSDSVK,GQLAGTFDS,0.31 -0.10 -0.32 -0.56 -0.13 0.09,0 of 18

The range of this assay differs from that of the first round, and the authors advise against merging the two. Background: pairings of all heavy chain designs with three empty control strains gave a value in 1% of cases (median 2.08, 5th percentile 0.84). Values in that range, when seen in few replicates, are hard to tell from nonspecific mating. For each scFv, signals with the empty controls are counted beside the result, with their mean in brackets. In the paper, a design with two or fewer of six values counts as a poor binder. Of ten entries with the parent sequence, four were seen in most replicates (averages 0.34 to 2.37), three in one and three in none, so single entries are noisy.